High-throughput results deposited in PubChem BioAssay by National Center for Advancing Translational Sciences (NCATS).
Nrf2 ARE act: Nrf2 pathway activation | Potency, µM (highest dose often 46.1 µM), without a hit: top-dose activation, hits mostly activators | 0.31% of 410,000 active | AREc32 ARE-luciferase reporter (MCF7-derived line), luminescence, 24 h; note: potency is the fitted concentration of half-maximal effect; % of control where 0% means no effect; nearly all actives have a fitted effect of over 65% in size
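Nrf2 activation is followed as ARE-luciferase induction in the AREc32 line after one day of compound treatment; luminescence is read with Steady-Glo.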
Nrf2 block: blocks Nrf2 signaling; AID 504444; A549 ARE-Fluc reporter, luciferase luminescence, 18-24 h; Potency, µM (top dose mostly 46 µM), inactives show at the top dose activity change, negative = inhibition, most hits filed as inhibitors; 2.1% of 360,000 active; note: potency is the fitted concentration of half-maximal effect; % is set by controls: 0 for no effect and ±100 for the full control effect; nearly all actives have a fitted effect of over 60% in size
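A549 ARE_Fluc cells (5000/well, 5% FBS OPTI-MEM) pre-incubated 2 h, then treated with compounds 18-24 h at 37C/5% CO2 in concentration-response. CellTiter-Fluor viability read first; BugLite luciferase luminescence after 15 min at room temperature gives Nrf2 activity.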
B2AR arrestin: recruits beta-arrestin to the human beta2-adrenergic receptor | P07550 | beta-arrestin recruitment to beta2AR, cell-based reporter | Potency, µM (top dose mostly 46.1 µM), inactives show top-dose activation, actives largely listed as activators | 0.02% of 330,000 active;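 note: potency is the fitted concentration of half-maximal effect; 0% = DMSO controls and full agonism = EC100 isoproterenol or metaproterenol; nearly all actives have a fitted effect of over 65% in size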
miR-21 reporter: miR-21 reporter, rising signal; HeLa miR-21 FLuc reporter, luciferase, 48 h; Potency, µM (titrated, usually from 38.3 µM), without a hit: top-dose reporter change, positive = more light; AID 2288; 340,000 tested, under 10 active; active = well fitted rising curve with a large enough effect; inconclusive = small, poorly fitted or top-dose-only effect; inactive = no such curve, though single readings can be large or run the other way;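 further: % of control where 0% means no effect; miR-21 action dims this reporter so a rising signal means less miR-21 action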
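HeLa cells stably expressing CMV-driven firefly luciferase with a downstream miR-21 binding sequence, endogenously expressing miR-21, were treated with titrations (up to about 40uM final) for 48 hours at 37 degree Celsius. Luciferase luminescence was read after lysis.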
A549 viability: kills or reduces viability of A549 cells in Nrf2 counter-screen. A549 ARE-Fluc cells, CellTiter-Fluor viability, 18-24 h. Potency, µM (doses to about 46 µM), without a hit: at the highest dose activity change, negative = cytotoxicity, actives largely listed as inhibitors. 0.16% of 390,000 active; note: potency is the fitted concentration of half-maximal effect; % is set by controls: 0 for no effect and ±100 for the full control effect
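Cytotoxicity counterscreen: CellTiter-Fluor fluorescence was measured in A549 ARE_Fluc cells after 18-24 h of compound exposure in a concentration series. The subsequent BugLite luminescent read reports ARE-luciferase activity.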
* = called active by the depositor; ? = inconclusive; nt = no result. Shown are actives, neighbours in structure and some others; about 2.2% of the full set was active somewhere. Unless noted, calls come from the whole dose curve; as a rule, active = well fitted curve in the direction sought with a large enough effect; inconclusive = small, poorly fitted or top-dose-only effect, or another doubt; inactive = no such curve, though single readings can be large; an effect the other way counts as inactive or inconclusive.

Each structure is followed by: Nrf2 ARE act, Nrf2 block, B2AR arrestin, miR-21 reporter, A549 viability
(1) COc1ccc(C(=O)Nc2cccc(S(=O)(=O)NCc3ccco3)c2)cc1
 : 1.7%, ?, 0.2%, nt, -6.3%
(2) CCCOc1ccc(C(=O)Nc2ccc(-c3cc4ccccc4oc3=O)c(C)c2)cc1
 : 6.9%, 5.8µM*, nt, 17.3%, -6.7%
(3) CCCC1COC(Cn2cncn2)(c2ccc(Cl)cc2Cl)O1 (centres undefined)
 : -0.5%, -6.2%, 0.1%, -10.8%, 3.1%
(4) CC(=O)N1CCN(c2ccc(OC[C@H]3CO[C@](Cn4ccnc4)(c4ccc(Cl)cc4Cl)O3)cc2)CC1
 : 11.0%, 18.4µM*, -0.7%, ?, -1.2%
(5) COC(=O)C1=C(c2ccc(OCc3ccccc3)cc2)C[C@@H]2CC[C@H]1N2C(=O)NCc1ccc(C(C)(C)C)cc1
 : 1.8%, nt, nt, nt, nt
(6) COC(=O)C1=C(c2ccccc2OCc2ccccc2)C[C@@H]2CC[C@H]1N2C(=O)NCc1ccc(F)cc1
 : -1.1%, 23.1µM*, 0.4%, nt, ?
(7) COC(=O)C1=C(c2ccc(F)cc2OCc2ccccc2)C[C@@H]2CC[C@H]1N2C(=O)NC1Cc2ccccc2C1
 : -0.5%, 16.4µM*, 0.1%, nt, -17.3%
(8) COC(=O)C1=C(c2ccc(F)cc2OCc2ccccc2)C[C@@H]2CC[C@H]1N2C(=O)NCc1ccc(F)cc1
 : 0.3%, ?, -0.9%, nt, -14.5%
(9) COC(=O)C1=C(c2ccc(F)cc2OCc2ccccc2)C[C@@H]2CC[C@H]1N2C(=O)N1CCCCC1
 : -0.6%, ?, 0.4%, nt, -29.0%
(10) COC(=O)C1=C(c2ccc(F)cc2OCc2ccccc2)C[C@@H]2CC[C@H]1N2C(=O)NCc1ccc(C)cc1
 : -0.4%, 14.6µM*, 0.0%, nt, ?
(11) COC(=O)C1=C(c2ccccc2OCc2ccccc2)C[C@@H]2CC[C@H]1N2C(=O)NCc1ccc(C(C)(C)C)cc1
 : -0.5%, 20.6µM*, -0.1%, nt, -11.8%
(12) CCC(=O)C1=C(c2cccc([N+](=O)[O-])c2)N(C(=O)CC)n2c(nnc2C2CCCCC2)S1
 : -0.2%, nt, nt, ?, -22.2%
(13) COC(=O)C1=C(c2ccc(F)cc2OCc2ccccc2)C[C@@H]2CC[C@H]1N2C(=O)NCc1ccccc1Br
 : 2.7%, ?, -0.9%, nt, -4.0%
(14) COC(=O)C1=C(c2ccc(F)cc2OCc2ccccc2)C[C@@H]2CC[C@H]1N2C(=O)NCCCc1ccccc1
 : -0.6%, 16.4µM*, 0.2%, nt, -17.5%
(15) C/C(=C\c1ccc(N(C)C)cc1)[N+](=O)[O-]
 : ?, 23.1µM*, -0.7%, ?, ?
(16) CN(C)c1ccc(/C=C/[N+](=O)[O-])cc1
 : 0.5%, ?, -0.6%, -1.4%, 0.5%
(17) CCN(CC)C(=O)c1ccc(NC(=O)CCn2nc(-c3ccc(Cl)cc3)c3ccccc3c2=O)cc1
 : -0.6%, 25.9µM*, nt, ?, -15.4%
(18) O=C(C1CCN(S(=O)(=O)c2ccc(Br)s2)CC1)N1CCN(c2ccc(F)cc2)CC1
 : -0.8%, ?, nt, -1.7%, -7.2%
(19) C[C@]12CCC3C(CC[C@H]4C[C@@H](O)CC[C@]34C)[C@H]1C=CC2=O (some centres undefined)
 : 22.4µM*, ?, -0.3%, nt, -0.9%
(20) CC(C)C[C@H]1CN([C@@H](CC(C)C)CN2CCCC2CN2C(=S)NC[C@@H]2Cc2ccc(O)cc2)C(=S)N1CC1CCCCCC1 (some centres undefined)
 : -1.1%, ?, nt, nt, -15.8%

Shown field by field: two of the compounds above.
14. COC(=O)C1=C(c2ccc(F)cc2OCc2ccccc2)C[C@@H]2CC[C@H]1N2C(=O)NCCCc1ccccc1
  Nrf2 ARE act: -0.6%
  Nrf2 block: 16.4µM*
  B2AR arrestin: 0.2%
  miR-21 reporter: nt
  A549 viability: -17.5%
15. C/C(=C\c1ccc(N(C)C)cc1)[N+](=O)[O-]
  Nrf2 ARE act: ?
  Nrf2 block: 23.1µM*
  B2AR arrestin: -0.7%
  miR-21 reporter: ?
  A549 viability: ?

Other results:
Labels used below – A = Nrf2 ARE act; B = Nrf2 block; C = B2AR arrestin; D = miR-21 reporter; E = A549 viability
21	Cc1nc2c(=O)n(C)c(=O)nc-2n(C)n1
  A: -2.8%	B: 2.31µM*	C: 0.2%	D: ?	E: 1.64µM*
22	Cn1nc(-c2ccccc2)nc2c(=O)n(C)c(=O)nc1-2
  A: nt	B: 2.59µM*	C: nt	D: nt	E: 3.66µM*
23	CCn1nc(-c2ccccc2)nc2c(=O)n(C)c(=O)nc1-2
  A: -1.8%	B: 2.91µM*	C: 0.0%	D: ?	E: 4.11µM*
24	Cc1[nH]c2ccccc2c1P(=S)(c1ccccc1)c1ccccc1
  A: nt	B: -9.7%	C: nt	D: nt	E: -0.5%
25	Cc1ccc(NS(=O)(=O)c2c(F)cc(F)c(Cl)c2F)cc1S(=O)(=O)N1CCOCC1
  A: ?	B: -7.7%	C: -0.1%	D: nt	E: -6.5%
26	O=C(Nc1ccccc1F)Oc1cccc(OC(=O)Nc2ccccc2F)c1
  A: 0.1%	B: ?	C: -0.3%	D: -42.8%	E: -0.1%
27	Nc1nonc1-n1nnc(C(=O)N/N=C/c2ccc3c(c2)OCO3)c1CSc1ccccc1
  A: 0.3%	B: ?	C: -1.1%	D: 1.6%	E: -7.8%

Single values from the list:
Reading of compound 22 under Nrf2 block: 2.59µM*
Reading of compound 9 under Nrf2 ARE act: -0.6%
Reading of compound 12 under A549 viability: -22.2%
